# Experimental data reported in patent US10683278B2 (JINAN UNIVERSITY, priority 2015, dated 2020).
# By UniProt entry, the sequences of proteins in these tests, tags left out. Residues count along the entry.
# UniProt P30530, 26-894 limits assumed: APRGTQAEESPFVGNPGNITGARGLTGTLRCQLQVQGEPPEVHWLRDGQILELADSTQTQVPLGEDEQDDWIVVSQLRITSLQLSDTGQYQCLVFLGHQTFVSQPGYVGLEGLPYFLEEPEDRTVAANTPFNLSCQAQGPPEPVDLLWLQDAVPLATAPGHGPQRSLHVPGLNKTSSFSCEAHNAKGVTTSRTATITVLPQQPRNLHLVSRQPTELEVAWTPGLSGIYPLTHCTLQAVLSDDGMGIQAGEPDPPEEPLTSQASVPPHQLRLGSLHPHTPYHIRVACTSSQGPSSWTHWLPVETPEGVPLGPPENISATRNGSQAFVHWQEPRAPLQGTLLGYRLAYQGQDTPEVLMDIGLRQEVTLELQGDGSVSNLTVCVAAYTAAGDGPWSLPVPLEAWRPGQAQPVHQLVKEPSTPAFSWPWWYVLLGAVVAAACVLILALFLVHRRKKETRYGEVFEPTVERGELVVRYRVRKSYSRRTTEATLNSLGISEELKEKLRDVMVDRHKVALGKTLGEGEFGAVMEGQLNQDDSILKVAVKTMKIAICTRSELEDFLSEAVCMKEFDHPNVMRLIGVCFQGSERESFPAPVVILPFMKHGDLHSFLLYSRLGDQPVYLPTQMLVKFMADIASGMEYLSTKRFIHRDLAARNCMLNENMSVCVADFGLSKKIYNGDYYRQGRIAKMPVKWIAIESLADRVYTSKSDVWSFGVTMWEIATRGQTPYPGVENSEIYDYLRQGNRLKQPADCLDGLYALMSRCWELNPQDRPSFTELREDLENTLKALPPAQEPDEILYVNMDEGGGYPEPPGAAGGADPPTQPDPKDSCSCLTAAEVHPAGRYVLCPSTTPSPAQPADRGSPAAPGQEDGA
# UniProt P36888, 610-943 limits assumed: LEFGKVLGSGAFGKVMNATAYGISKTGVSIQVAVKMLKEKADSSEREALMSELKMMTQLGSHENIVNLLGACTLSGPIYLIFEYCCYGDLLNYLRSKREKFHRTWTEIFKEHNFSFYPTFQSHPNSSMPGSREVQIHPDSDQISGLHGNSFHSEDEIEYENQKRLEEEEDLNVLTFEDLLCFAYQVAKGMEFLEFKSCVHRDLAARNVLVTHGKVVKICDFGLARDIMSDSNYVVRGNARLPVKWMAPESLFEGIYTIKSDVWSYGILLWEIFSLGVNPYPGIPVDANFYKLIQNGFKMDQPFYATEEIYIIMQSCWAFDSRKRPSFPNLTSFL
# Where “and” joins values, the source holds several entries; their conditions need not be identical. Equal values may be shown once.
# Key:
# AXL kinase = AXL kinase (Homo sapiens, UniProt P30530); assay: IC50 test on AXL kinase (Z′-LYTE FRET kinase activity detection); format: biochemical; conditions: read-out: AXL IC50; Z′-LYTE FRET peptide assay, 1 h reaction
# [1] = molecular target: FLT-3 kinase domain recombinant protein (Homo sapiens, UniProt P36888); assay: Inhibition rate on FLT3 kinase (ELISA); conditions: two values per compound
compound,measurement,setting,value
CCc1ccc2c(c1)c(=O)c(C(=O)Nc1ccc(Oc3ncnc4[nH]cc(-c5ccccc5)c34)cc1F)c(C)n2C,IC50,AXL kinase,42 nM
same,Inhibition rate (%) against receptor tyrosine kinase FLT-3,"[1]; compound 10 nM, 0.01 µM",46.9% and 50.0%
same,Inhibition rate (%) against receptor tyrosine kinase FLT-3,"[1]; compound 100 nM, 0.1 µM",47.1% and 53.6%
same,Inhibition rate (%) against receptor tyrosine kinase FLT-3,"[1]; compound 1000 nM, 1 µM",81.8% and 67.6%
